Test results as given in paper PMC7586344, “Discovery of Novel pERK1/2- or β-Arrestin-Preferring 5-HT1A Receptor-Biased Agonists: Diversified Therapeutic-like versus Side Effect Profile” (Journal of Medicinal Chemistry, 2020).

By UniProt entry, the sequences of proteins in these tests, tags left out.
UniProt P08908, whole entry: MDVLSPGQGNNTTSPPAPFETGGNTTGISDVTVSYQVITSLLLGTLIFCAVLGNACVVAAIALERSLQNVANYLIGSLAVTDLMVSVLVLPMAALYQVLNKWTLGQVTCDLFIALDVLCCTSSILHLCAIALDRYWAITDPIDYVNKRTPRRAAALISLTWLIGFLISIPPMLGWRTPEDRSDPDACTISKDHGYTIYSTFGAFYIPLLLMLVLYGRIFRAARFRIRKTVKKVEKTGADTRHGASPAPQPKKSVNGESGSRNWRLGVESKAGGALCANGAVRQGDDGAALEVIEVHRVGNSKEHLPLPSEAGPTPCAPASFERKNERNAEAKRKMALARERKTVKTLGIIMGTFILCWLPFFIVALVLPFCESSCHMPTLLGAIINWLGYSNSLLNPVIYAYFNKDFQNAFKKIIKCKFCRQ

Target: 5-HT1A receptor (Homo sapiens, UniProt P08908)
Assay: Serotonin 5-HT1A receptor radioligand binding assay
Set-up: expressed in transfected cells; host or cells: CHO
Settings: pKi minus ClogD7.4, referring to the 5-HT1A receptor

SMILES: Cc1cnc(CNCC2(F)CCN(C(=O)c3ccc(F)c(Cl)c3)CC2)nc1 [Compound 1, {[1-(3-chloro-4-fluorobenzoyl)-4-fluoropiperidin-4-yl]methyl}[(5-methylpyrimidin-2-yl)methyl]amine]
- LLE: 6.37
